{"source": "patent US11583575B2", "about": "“MHC-bound peptide arrays and methods of use thereof” (Roche Sequencing Solutions, Inc., priority 2016, dated 2023)", "key": {"[1]": {"biological_target": "MHCI (Homo sapiens, UniProt P04439, D140Y/D185E/D98H/E176V/E277Q/G131W/G231S/I119V/I121R/I166T/I218V/N151K/N90K/P208A/P217A/Q86G/Q94H/R138H/R169H)", "assay": "On-array peptide-MHCI complex assembly of WT1 9-mer peptides, detected by labeled conformational antibody", "assay_type": "binding", "conditions": "440 peptides plotted, FIG. 2-5", "experimental": "Typically, 630 μl of 10 mM Tris-HCl pH8.5 was mixed with 20 μl of 10% BSA in 20 mM Tris-HCl pH 7.8, 300 μg of 30 mg/ml solubilized b2m and 600 μg of 15-40 mg/ml solubilized alpha-chain in the indicated order at room temperature (RT). The control sample contained no b2m protein. Mixed samples were incubated at 4° C. overnight and centrifuged at 12,000×g for 4 min to remove precipitate. The supernatant was concentrated with an AmiconUltra 10K filter (Millipore) using two sample loads of approximately 400 μl and centrifuged at 12,000×g for 2 min each. The sample buffer was replaced with 10 mM Tris pH8.5 by addition of 350 μl 10 mM Tris-HCl pH 8.8 to the filter retained volume and concentrated by centrifugation at 12,000×g for 4 min. The buffer replacement procedure was repeated two more times using 350 μl 10 mM Tris-HCl pH 8.5 each time. […]\nFIG. 2 provides a plot depicting a plurality of WT1 peptides, each 9 amino acids in length and each having a unique sequence along the wild type sequence of the WT1 protein, organized into quadrants based on either their signal intensity when bound to MHCI on a surface of the disclosure and detected by a labeled antibody, or their predicted binding affinity, as estimated by NetMHC 3.4. […]"}, "[2]": {"system": "ESK1 antibody", "assay": "ESK1 antibody binding specificity to peptide-MHC assemblies for WT1 9mer peptides", "conditions": "FIG. 7", "from_the_text": "Because the array of peptides on the surface is spatially-ordered, the sequence of every peptide is immediately known. Each amino acid of the 9 amino acid peptide was substituted for each of the 20 possible amino acids to identify those positions within this peptide that are essential for forming a proper peptide-MHCI complex. […] The amino acids A, F, I, L, M, V, W and P are nonpolar amino acids. The amino acids G, S, Y, C, Q, T, N are polar amino acids. The amino acids R, K and H are basic amino acids. The amino acids D and E are acidic amino acids."}}}
{"sequence": "RMFPNAPYL [WT1 peptide126]", "values": [{"measurement": "binding to MHCI on the surface (signal intensity, labeled antibody)", "setting": "[1]", "result": "demonstrated binding capacity to MHCI"}, {"measurement": "ESK1 antibody binding specificity (relative fluorescence intensity)", "setting": "[2]", "result": "specific target"}]}
